Reference: US11624068B2, “Compositions and methods for improving immune system function” (Tufts Medical Center, Inc., priority 2016, dated 2023)

Tested on: PD1, Lag3 and Tim3
Assay: Flow cytometry of exhaustion markers in repeatedly stimulated T cells
Type: cell-based, human
Conditions: 330 IU/ml exogenously supplemented IL2; FIG. 11
Description: The following antibodies were used for cell staining: PE-conjugated anti-human CD279 (PD-1) (cat. 12-2799), CD223 (LAG-3) (cat. 12-2239), Tim3 (cat. 12-3109), and CD3-PECyanine7 (cat. 25003182), all of which were purchased from eBioscience, and FITC-conjugated anti-human CD8 (Invitrogen) and CD4 (BD Biosciences, cat. 340133). Pacific Blue-conjugated PD1 (cat. 329920), PE-conjugated PD-L1 (cat. 329705) and purified PD-L1 (cat. 329702) was purchased from BioLegend. In addition, PE-conjugated (cat. 555783, Pharmingen) was used as an isotype control. T cell apoptosis was detected through flow cytometric analysis using the FITC Annexin V apoptosis detection kit I (BD Pharmingen, cat. 556547) in conjunction with the vital dye, propidium iodide (BD Pharmingen, cat. 51-66211E). […]
Human T cell isolation and culture in vitro. […] 48 hours after the first stimulation, cells were counted and washed, and beads were removed using a magnet. […]

## IL2: IL2 included in the growth medium (Chiron)
  exhaustion marker progression: does not block
